# From US9771336B2, “Tetrazole based corrosion inhibitors” (Ecolab USA Inc., priority 2013, dated 2017)
# Test: Copper corrosion rate with and without bleach in a cooling water environment
# Settings: average copper corrosion rate, inhibitor concentration 5 ppm
smiles,measurement,setting,value
C(Cc1nnn[nH]1)CC(CCc1nnn[nH]1)c1nnn[nH]1 (centres unmarked),Corrosion Rate (mpy) with Bleach (1 FRC),with bleach,0.108 mpy
same,Corrosion Rate (mpy) without Bleach,without bleach,0.223 mpy
